# Results published in ChEMBL document CHEMBL1156438, “Resolvin D1 and its aspirin-triggered 17R epimer. Stereochemical assignments, anti-inflammatory properties, and enzymatic inactivation” (J Biol Chem, 2007).
# Organism: Homo sapiens
# Experiment: Antiinflammatory activity in human polymorphonuclear leukocytes assessed as inhibition of n-formylmethionylleucylphenylalanine-stimulated transendothelial migration after 15 mins
# Type: functional, cell-based
row,Structure (SMILES),Activity
1,CC/C=C\C[C@H](O)/C=C/C=C\C=C\C=C\[C@@H](O)[C@@H](O)C/C=C\CCC(=O)O,Dose-dependent effect
2,CC/C=C\C[C@@H](O)/C=C/C=C\C=C\C=C\[C@@H](O)[C@@H](O)C/C=C\CCC(=O)O,Dose-dependent effect
